Earlier results as cited in patent US12584131B2, “Methods of gene therapy” (OREGON HEALTH & SCIENCE UNIVERSITY, priority 2018, dated 2026).

Tested on: CYP enzymes

For Retrorsine, the “Metabolizing CYP” value is listed as “CYP3A4”.
